Measurements reported in patent publication US20030162222A1, “Method for selecting enzyme inhibitors” (priority 2000, published 2003).

How the values were obtained:
[1] = tested on: tyrosine phosphorylation of cellular proteins, 32D cells expressing mutant Bcr-Abl T315M; assay: Tyrosine phosphorylation of cellular proteins from 32D cells expressing Bcr-Abl T315M (PY99); format: cell-based, murine; conditions: STI571 1 μM or PP1 25 μM, then lysis
Text: (§1) The protein extracts thus obtained are then examined for tyrosine phosphorylation of cellular proteins. This is done using the antibody PY99, which specifically recognises tyrosine-phosphorylated proteins.

[2] = tested on: 32D cells which express the mutant Bcr-Abl T315M; assay: Proliferation and survival of 32D cells expressing mutant Bcr-Abl T315M in the absence of interleukin-3; format: cell-based, murine; conditions: 32D cells expressing Bcr-Abl T315M, no interleukin-3
Text: (§2) FIG. 17 contains two diagrams showing the proliferation of STI571 or PP1-treated 32D cells, which express either wt Bcr-Abl or the mutant Bcr-Abl T315M, in the absence of interleukin-3 as a survival factor, the amount of proliferation being represented by an absolute number of cells;
(§3) FIG. 18 contains two diagrams showing the survival of STI571-treated or PP1-treated 32D cells, which express either wt Bcr-Abl or the mutant Bcr-Abl T315M, in the absence of interleukin-3 as a survival factor, the amount of cell death being represented by the percentage of annexine-V-positive cells;
(§4) In one example of the method of the invention either Bcr-Abl or a mutant previously identified as being resistant to kinase inhibitors PP1 and STI571, e.g. T315M, is expressed in a murine, interleukin-3-dependent cell line, 32D. Bcr-Abl is a constitutionally active tyrosine kinase which induces different forms of leukaemia in the animal model and humans.
(§5) The example is carried out by transfixing 32D cells with a plasmid by electroporation, i.e. with the aid of a current pulse. The plasmid codes for either wt Bcr-Abl or e.g. for the mutant T315M. These plasmids additionally carry a resistance marker; in this case a puromycin resistance gene. Transfixed cells are therefore selected by means of puromycin.
(§6) The cells are then characterised biologically. […]

Src kinases = conditions: compared to ZAP70, Jak2, PKA kinases and EGF receptor kinase; Hanke et al. 1996; cited from earlier work
[3] = tested on: tyrosine phosphorylation of cellular proteins, 32D cells expressing wt Bcr-Abl; assay: Tyrosine phosphorylation of cellular proteins from 32D cells expressing wt Bcr-Abl (PY99); format: cell-based, murine; conditions: 32D cells expressing Bcr-Abl wt; STI571 1 μM or PP1 25 μM, then lysis
Text: as §1

[4] = tested on: 32D cells which express wt Bcr-Abl; assay: Proliferation and survival of 32D cells expressing wt Bcr-Abl in the absence of interleukin-3; format: cell-based, murine; conditions: 32D cells expressing Bcr-Abl wt; no interleukin-3; PP1 25 μM or STI571 1 μM
Text: as §2, §3, §4, §5, §6

| SMILES | phosphorylation of cellular proteins [1] | cells that die off ([2]; PP1 25 μM) | survival of cells ([2]; PP1 25 μM or STI571 1 μM) | selectivity for Src kinases (Src kinases) | tyrosine phosphorylation of Bcr-Abl and other cellular proteins [3] | survival of cells [4] |
| --- | --- | --- | --- | --- | --- | --- |
| Cc1ccc(-c2nn(C(C)(C)C)c3ncnc(N)c23)cc1 [PP1] | clear reduction in the phosphorylation of some cellular proteins | about 30% | reduced cell survival rate | high selectivity | substantially uniform reduction | prevent |
| CC(C)(C)n1nc(-c2ccc(Cl)cc2)c2c(N)ncnc21 [PP2] |  |  |  | high selectivity |  |  |
